The numbers were not newly measured in article PMC12557437, “Research towards selective inhibition of the CLK3 kinase” (Beilstein Journal of Organic Chemistry, 2025), which cites them from elsewhere.

By UniProt entry, the sequences of proteins in these tests, tags left out. Where a name states a change or a piece, a line headed by the entry shows the natural chain unless it says otherwise.
UniProt P22518: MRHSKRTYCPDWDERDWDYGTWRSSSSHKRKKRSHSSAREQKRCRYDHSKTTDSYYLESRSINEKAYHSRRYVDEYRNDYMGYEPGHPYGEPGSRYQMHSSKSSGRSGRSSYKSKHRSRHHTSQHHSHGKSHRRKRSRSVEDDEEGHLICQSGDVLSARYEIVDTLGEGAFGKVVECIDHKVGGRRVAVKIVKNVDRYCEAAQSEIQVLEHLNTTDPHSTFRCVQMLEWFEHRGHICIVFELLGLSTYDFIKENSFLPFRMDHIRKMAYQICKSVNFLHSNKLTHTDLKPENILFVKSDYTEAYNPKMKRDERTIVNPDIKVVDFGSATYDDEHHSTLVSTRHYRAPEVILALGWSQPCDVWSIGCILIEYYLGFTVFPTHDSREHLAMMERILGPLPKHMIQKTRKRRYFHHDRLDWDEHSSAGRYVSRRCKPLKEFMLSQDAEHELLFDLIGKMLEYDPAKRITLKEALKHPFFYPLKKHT
UniProt O35491, whole entry: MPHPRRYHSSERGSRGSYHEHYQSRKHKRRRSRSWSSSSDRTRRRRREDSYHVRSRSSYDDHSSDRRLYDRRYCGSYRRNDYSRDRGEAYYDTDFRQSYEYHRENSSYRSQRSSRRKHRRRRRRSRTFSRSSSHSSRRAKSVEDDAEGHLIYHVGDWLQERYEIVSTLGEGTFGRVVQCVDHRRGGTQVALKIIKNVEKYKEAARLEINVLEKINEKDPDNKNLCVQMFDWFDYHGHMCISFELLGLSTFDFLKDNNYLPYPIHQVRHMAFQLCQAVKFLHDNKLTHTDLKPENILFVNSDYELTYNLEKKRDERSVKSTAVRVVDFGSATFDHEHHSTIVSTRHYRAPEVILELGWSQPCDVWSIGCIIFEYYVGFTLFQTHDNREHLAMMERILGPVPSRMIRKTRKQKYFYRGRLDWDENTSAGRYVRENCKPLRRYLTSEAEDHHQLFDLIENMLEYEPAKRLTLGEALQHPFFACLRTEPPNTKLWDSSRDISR

The structures appear in SMILES notation.

The test system of one data set is CLK1. As to conditions: human protein kinase; ref 17 (SM08502), 19 (T3), 20-21 (CX-4945), 24 (DB18); cited from earlier work.
A further data set deals with CLK2. Conditions: human protein kinase; ref 17 (SM08502), 19 (T3), 20-21 (CX-4945), 24 (DB18); cited from earlier work.
A further data set relates to CLK3. Conditions: human protein kinase; ref 17 (SM08502), 19 (T3), 20-21 (CX-4945), 24 (DB18); cited from earlier work.
The next data set relates to CLK4. As to conditions: human protein kinase; ref 17 (SM08502), 20-21 (CX-4945), 24 (DB18); cited from earlier work.
For a further data set, the system named is DYRK1A. Conditions: human protein kinase; ref 17 (SM08502), 19 (T3), 20-21 (CX-4945), 24 (DB18); cited from earlier work.
The next data set concerns the target Mm_CLK1 (Mus musculus, UniProt P22518). On the set-up: method as in PMID 33422908, PMID 36234686. As to conditions: data taken from ref 23-24; cited from earlier work.
The target in the next data set is Mm_CLK2 (Mus musculus, UniProt O35491). On the set-up: method as in PMID 33422908, PMID 36234686. Conditions: data taken from ref 23-24; cited from earlier work.
The next data set concerns the target T1, Mm_CLK3 (Mus musculus, UniProt O35492).
T1 sequence (O35492 1-490): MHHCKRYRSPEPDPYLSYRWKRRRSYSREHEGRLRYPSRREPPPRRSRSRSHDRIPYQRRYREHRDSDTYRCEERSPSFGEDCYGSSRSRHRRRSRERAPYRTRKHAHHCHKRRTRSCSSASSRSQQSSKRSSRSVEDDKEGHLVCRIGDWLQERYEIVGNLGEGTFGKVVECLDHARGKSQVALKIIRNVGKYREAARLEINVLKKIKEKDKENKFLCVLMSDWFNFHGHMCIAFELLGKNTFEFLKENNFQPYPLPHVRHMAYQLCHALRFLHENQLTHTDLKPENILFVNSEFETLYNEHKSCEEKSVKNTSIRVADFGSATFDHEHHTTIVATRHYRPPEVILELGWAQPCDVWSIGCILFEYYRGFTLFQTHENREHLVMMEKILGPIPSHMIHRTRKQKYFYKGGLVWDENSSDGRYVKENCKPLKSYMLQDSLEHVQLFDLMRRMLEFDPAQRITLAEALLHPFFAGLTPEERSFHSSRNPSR
The arrangement: method as in PMID 33422908, PMID 36234686. Conditions: data taken from ref 23-24; cited from earlier work.

In another data set the test system is DYRK kinases. Conditions: cited from earlier work.

In general, IC50 refers to the concentration needed to halve the response being measured. `Cc1ccc(-n2cc(COc3cccc4cnc(Nc5cccc(Cl)c5)nc34)nn2)c([N+](=O)[O-])c1` [DB18]: the IC50 in the data set on CLK1 is 0.011 nM; with CLK2 it was 0.027 nM; in the data set with CLK3 it was 1.28 nM; in the data set on CLK4, 0.02 nM; with DYRK1A it was over 100 nM; at Mm_CLK1, 11 nM. In addition, the IC50 was 27 nM at Mm_CLK2 and 1280 nM on Mm_CLK3. In the data set on DYRK kinases, the “inhibition of DYRK kinases” value is “inactive”.
